# Experimental data from ChEMBL document CHEMBL1129543, “Synthesis and evaluation of N-(phenylacetyl)trifluoromethanesulfonamides as anticonvulsant agents” (J Med Chem, 1996).
# Species: Rattus norvegicus
# Test: Protective index (TD50/ED50) was determined against MES induced seizure in rat.
# Assay type: functional
# Summary of the method: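 Oral dosing in 30% PEG 400: phase IV in mice (0.01 mL/g), phase VI in Sprague-Dawley rats (0.004 mL/g). ED50/TD50 found as in phase II, at the stated time of peak effect. MES current 50 mA in mice, 150 mA in rats. PTZ sc 85 mg/kg in mice, 70 mg/kg in rats. Toxicity by rotorod in mice; positional sense, gait and stance in rats. PI = TD50/ED50.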
smiles,measurement,value
CCC1(C)CC(=O)NC1=O (stereo unspecified) [ETHOSUXIMIDE],PI,<0.44
